Measured values as given in ChEMBL document CHEMBL3638764, “Compounds and their use as BACE inhibitors” (2014).

Sequences of proteins named here, by UniProt entry; tags and fusion partners are left off. A change or cut given only in a name is not applied to a line headed by its entry.
UniProt P56817: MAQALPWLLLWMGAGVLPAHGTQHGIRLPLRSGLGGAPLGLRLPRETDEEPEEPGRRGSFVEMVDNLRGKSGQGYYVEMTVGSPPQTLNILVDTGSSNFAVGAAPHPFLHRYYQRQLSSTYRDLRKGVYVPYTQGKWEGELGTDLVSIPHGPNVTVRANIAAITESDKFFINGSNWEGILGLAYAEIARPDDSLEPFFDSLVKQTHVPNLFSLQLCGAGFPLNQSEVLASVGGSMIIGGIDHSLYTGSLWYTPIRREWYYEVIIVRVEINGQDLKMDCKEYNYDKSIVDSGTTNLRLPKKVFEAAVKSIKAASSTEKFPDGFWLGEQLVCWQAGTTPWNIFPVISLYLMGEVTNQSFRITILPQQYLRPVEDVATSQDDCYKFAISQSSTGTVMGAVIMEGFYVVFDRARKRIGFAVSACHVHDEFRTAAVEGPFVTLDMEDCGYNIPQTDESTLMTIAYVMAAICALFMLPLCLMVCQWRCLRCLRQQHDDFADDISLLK

What was measured:
Beta-secretase 1 [1] = target: T1, Beta-secretase 1 (Homo sapiens, UniProt P56817); assay: (§1) Diluted TR-FRET Assay: TR-FRET AssayThe beta-secretase enzyme used in the TR-FRET is prepared as follows: The cDNA for the soluble part of the human beta-Secretase (AA 1-AA 460) was cloned using the ASP2-Fc10-1-IRES-GFP-neoK mammalian expression vector. The gene was fused to the Fc domain of IgG1 (affinity tag) and stably cloned into HEK 293 cells. […] The robotic systems Biomek FX and Velocity 11 were used for all liquid handling and the enzyme and substrate solutions were kept on ice until they were placed in the robotic system. Enzyme (9 ul) was added to the plate then 1 ul of compound in dimethylsulphoxide was added, mixed and pre-incubated for 10 minutes.; format: cell-based, HEK293
Beta-secretase 1 [2] = target: T1, Beta-secretase 1; assay: as §1, with “TR-FRET” for “Diluted TR-FRET”, “The” for “TR-FRET AssayThe”, “minutes. Substrate (10 ul) was then added, mixed.” for “minutes.”; format: cell-based, HEK293

IC50 (Beta-secretase 1 [2]; hek293) [nM] | Compound | IC50 (Beta-secretase 1 [1]) [nM] | further results
 | CC1=N[C@]2(C[C@H]([C@@H]3CCCOC3)Oc3ccc(-c4cccc(Cl)c4)cc32)N=C1N (single isomer, unassigned; isomer 7) | 10 | 
 | CC1=N[C@]2(C[C@@H]([C@H]3CCCOC3)Oc3ccc(-c4cccc(Cl)c4)cc32)N=C1N (single isomer, unassigned; isomer 8) | 14 | 
23 | CO[C@H]1CC[C@]2(CC1)Cc1ccc(-c3cncc(Cl)c3)cc1[C@@]21N=C(C)C(N)=N1 |  | 
 | CC1=N[C@]2(C[C@H]([C@H]3CCCOC3)Oc3ccc(-c4cccc(Cl)c4)cc32)N=C1N (single isomer, unassigned; isomer 4) |  | IC50 (Beta-secretase 1 [2]): 803 nM
20 | CO[C@H]1CC[C@]2(CC1)Cc1ccc(-c3cc(Cl)cc(C#N)c3)cc1[C@@]21N=C(C)C(N)=N1 |  | 
